Bioassay records: PubChem BioAssay, National Center for Advancing Translational Sciences (NCATS)
miR-21 reporter = raises the signal of a miR-21 reporter | Potency, µM (doses to about 38.3 µM) | HeLa miR-21 FLuc reporter, luciferase, 48 h | AID 2288 | 340,000 tested, under 10 active; active = well fitted rising curve with a large enough effect; inconclusive = small, poorly fitted or top-dose-only effect; inactive = no such curve, though single readings can be large or run the other way;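 also: miR-21 action dims this reporter so a rising signal means less miR-21 action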
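Luminescence from a firefly luciferase reporter carrying a miR-21 binding site downstream, stably expressed under a CMV promoter in HeLa cells that make miR-21 endogenously, reports miRNA modulation after 48 h compound exposure up to approximately 40uM final.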
Epigenetic derep = epigenetic control regulation, reporter derepression | murine LDR cells, GFP reporter derepression, 30 h | Potency, µM (highest dose often 53.9 µM), hits mostly activators | 280,000 tested, 0.2% active | AID 1865; further: nearly all actives have a fitted effect of over 60% in size
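Murine LDR cells bearing a silenced CMV-driven GFP reporter were exposed to compound for 30 h at 37 C. After PBS washes, GFP-positive cells (20-120 um objects) counted by laser-scanning microplate cytometry.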
Vif-A3G inh = inhibitors of Vif-APOBEC3G interaction; Potency, µM (highest dose often 46.1 µM), actives largely listed as inhibitors; 410,000 tested, 0.076% active; AID 602310; HeLa A3G-eYFP + Vif (tagged APOBEC3G with the HIV-1 protein that degrades it), YFP fluorescence, overnight; further: nearly all actives have a fitted effect of over 60% in size
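Read-out is eYFP fluorescence (Ex 488/Em 500-530) from Vif-expressing HeLa A3G-eYFP cells; more signal means A3G escaped Vif-mediated degradation. Cells plated overnight, compound pinned in, incubated overnight at 37 deg C.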
Vif-APOBEC3F blk = blocks the Vif interaction with APOBEC3F; HeLa A3F-eYFP + Vif (tagged APOBEC3F with the HIV-1 protein that degrades it), YFP fluorescence increase; Potency, µM (highest dose often 46.1 µM); 390,000 tested, 0.2% active; further: nearly all actives have a fitted effect of over 65% in size
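HeLa cells stably expressing Vif plus C-terminally eYFP-tagged A3F were seeded, incubated overnight at 37 deg C, dosed with compound, incubated overnight again at 37 deg C. Yellow fluorescence (Ex 488/Em 500-530) reported blocked Vif-mediated A3F-eYFP degradation.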
C127i cell count = parental c127i cell effect of epigenetic modulator hits. shares compounds with Epigenetic derep. mouse c127i parental cells, fluorescent cell count, 30 h. Potency, µM, hits mostly activators. 60 tested, 20% active. AID 493065
HCC4017 tox = epigenetic modulators: cytotoxicity in HCC4017 lung cancer cells; shares compounds with Epigenetic derep; HCC4017 NSCLC viability, CellTiter-Glo ATP luminescence, 72 h; Potency, µM (highest dose often 46.1 µM), actives largely listed as cytotoxic; 45 tested, 30% active; AID 493071
H358 viab = H358 cytotoxicity of epigenetic modulator hits; shares compounds with Epigenetic derep; H358 NSCLC viability, ATP luminescence, 72 h; Potency, µM (highest dose often 46.1 µM), most hits filed as cytotoxic; 45 tested, 30% active
Of the large screens only hits and unclear results are named; the others gave an inactive call (follow-up assays come after a bar, where they were run). This is a sample that favours compounds with a hit; in the whole collection about 0.34% have one here. Unless noted, the call rests on the fitted dose curve; in most records, active means well fitted curve in the direction sought with a large enough effect; inconclusive means small, poorly fitted or top-dose-only effect, or another doubt; inactive means no such curve, though single readings can be large; an effect the other way counts as inactive or inconclusive.

Cc1cc(C)c2c(n1)sc1c(O)cc(=O)[nH]c12	none
COc1ccc(-c2cc(C(F)(F)F)c3c(n2)sc2c(O)cc(=O)[nH]c23)c(OC)c1	Epigenetic derep 11.2µM, Vif-APOBEC3F blk inconclusive
COc1ccc(NC(=O)c2sc3nc4c(cc3c2N)CN(Cc2ccccc2)CC4)c(OC)c1	Epigenetic derep 7.08µM, Vif-A3G inh inconclusive, Vif-APOBEC3F blk 11.2µM
CCOc1ccc(NC(=O)c2sc3nc4c(cc3c2N)CN(Cc2ccccc2)CC4)cc1	Epigenetic derep 15.8µM, Vif-APOBEC3F blk inconclusive
COc1ccc(-c2c3c(nc4sc(C(=O)Nc5ccc(Cl)cc5)c(N)c24)CC(C)(C)CC3=O)cc1	none (no result: Vif-A3G inh, Vif-APOBEC3F blk)
CCOc1ccc(NC(=O)c2sc3nc4c(c(-c5ccc(OC)cc5)c3c2N)C(=O)CC(C)(C)C4)cc1	Epigenetic derep 11.2µM (no result: Vif-A3G inh, Vif-APOBEC3F blk)
CCOC(=O)c1cc2c(=O)n3ccccc3nc2n(C(C)C)c1=NC(=O)c1cc2ccccc2o1	none
O=C(CS(=O)(=O)c1cccc2nsnc12)N1CCN(c2cccc(C(F)(F)F)c2)CC1	none
CCOC(=O)C1CCN(Cc2ccc(O)c3ncccc23)CC1	miR-21 reporter inconclusive, Epigenetic derep 5.62µM
CCOC(=O)C1CCN(Cc2ccccc2C(F)(F)F)CC1	none
c1ccc(-c2n[nH]c(-c3ccccn3)n2)cc1	Epigenetic derep 22.4µM
CCN(CC(=O)NCc1ccc(F)cc1)C(=O)/C=C/c1ccc(OC)c(S(=O)(=O)NC(C)C)c1	Vif-A3G inh 2.82µM (no result: Epigenetic derep)
CCOc1cc(/C=C2\CCC/C(=C\c3cc(Cl)c(O)c(OCC)c3)C2=O)cc(Cl)c1O	miR-21 reporter inconclusive, Epigenetic derep inconclusive, Vif-A3G inh 3.16µM, Vif-APOBEC3F blk inconclusive
O=C(CCN1C(=O)c2ccccc2C1=O)Oc1ccc2ccccc2c1	none
CC1=CC(C)(C)Nc2ccc(OC(=O)CCN3C(=O)c4ccccc4C3=O)cc21	miR-21 reporter inconclusive, Epigenetic derep inconclusive, Vif-A3G inh 11.2µM, Vif-APOBEC3F blk inconclusive
CCN1CCN(Cc2ccc(NC(=O)c3ccc(C)c(/C=C/c4cnc(Nc5cc(N6CCNCC6)nc(C)n5)cn4)c3)cc2C(F)(F)F)CC1	miR-21 reporter inconclusive, Vif-A3G inh inconclusive, Vif-APOBEC3F blk 31.6µM (no result: Epigenetic derep)
CCN1CCN(Cc2ccc(NC(=O)c3ccc(C)c(NC(=O)c4ccno4)c3)cc2C(F)(F)F)CC1	none
Cc1cc(C)c2c3c(c(-c4ccccc4)n2n1)c(=O)n(C)c(=O)n3C	none (no result: miR-21 reporter, Epigenetic derep)
Cc1cc(-c2ccccc2)c2c3c(c(-c4ccccc4)n2n1)c(=O)n(C)c(=O)n3C	Epigenetic derep inconclusive, Vif-A3G inh inconclusive, Vif-APOBEC3F blk 25.1µM
CCOC(=O)c1c(-c2ccccc2)csc1NC(=O)/C(C#N)=C/c1ccc(OC)c(OC)c1	none
CCOC(=O)c1c(-c2ccccc2)csc1NC(=O)/C(C#N)=C/c1ccc(O)c(OC)c1	Epigenetic derep 25.1µM, Vif-APOBEC3F blk inconclusive
COc1ccc(CNC(=O)CCCc2nnc3n(CCC(C)C)c(=O)c4sccc4n23)cc1	none
CCc1cc(OCCN(C)C)ccc1Cl	none
CN(C)CCOc1ccc2c(c1)C(=O)C(=Cc1ncc([N+](=O)[O-])n1C)C2	Vif-A3G inh 11.2µM, Vif-APOBEC3F blk inconclusive (no result: miR-21 reporter, Epigenetic derep)
COc1ccc(Cn2c(=O)n(Cc3ccco3)c(=O)c3oc4ccccc4c32)cc1	Vif-APOBEC3F blk inconclusive
O=C1c2ccccc2C(=O)C2OC12 (stereo not given)	none (no result: Epigenetic derep, Vif-A3G inh, Vif-APOBEC3F blk)
O=C(c1ccccc1)C1C(=O)c2ccccc2C1=O	Epigenetic derep inconclusive, Vif-A3G inh inconclusive, Vif-APOBEC3F blk 35.5µM
CCN1/C(=C2\SC(=S)N(Cc3ccccc3)C2=O)Sc2ccccc21	Epigenetic derep 12.6µM, Vif-APOBEC3F blk inconclusive
CCN1C(=O)/C(=C2/Sc3ccccc3N2CC)SC1=S	none (no result: Epigenetic derep)
COCCCNc1nc2ccccc2nc1NS(=O)(=O)c1ccccc1	Vif-APOBEC3F blk 22.4µM
COc1cc2c(NC3CCN(C(C)C)CC3)nc(N3CCCN(C)CC3)nc2cc1OCCOCCN(C)C	none (no result: miR-21 reporter, Epigenetic derep, Vif-APOBEC3F blk)
COC(=O)c1c(-c2ccccc2)c(-c2ccccc2)nn(C)c1=O	none
CC(C)OC(=O)c1c(-c2ccccc2)c(-c2ccccc2)nn(C)c1=O	miR-21 reporter 11.7µM
O=C1/C(=C/c2ccc([N+](=O)[O-])cc2)Oc2cc(O)ccc21	Vif-APOBEC3F blk 22.4µM (no result: Epigenetic derep)
COCCNC(=S)N/N=C(\C)c1ccc(OC(F)F)cc1	Vif-APOBEC3F blk 25.1µM
COCCNC(=S)N/N=C(\C)c1cccc(C(F)(F)F)c1	Vif-APOBEC3F blk inconclusive
COCCNC(=S)N/N=C(\C)c1ccc(OC)cc1	none
COCCNC(=S)N/N=C(\C)c1ccc2cc(OC)ccc2c1	Epigenetic derep 7.94µM
O=C(O)C1=CC(c2ccc(Br)cc2)n2ncnc2N1 (stereo not given)	none
COc1cccc(NC(=O)CSC2=Nc3ccccc3C3=NC(CCC(=O)NCCc4ccccc4)C(=O)N23)c1 (stereo not given)	none
Cc1ccnc(NC(=O)Nc2ccc3c(c2)N(C)C(=O)CS3)c1	Vif-A3G inh inconclusive, Vif-APOBEC3F blk 25.1µM
CC(C)OC(=O)c1sc2nc(-c3ccccc3)ccc2c1N	none
COc1cccc(-c2ccc3c(N)c(C(=O)c4ccc(Cl)cc4)sc3n2)c1	Epigenetic derep inconclusive, Vif-A3G inh 10µM, Vif-APOBEC3F blk inconclusive
COc1cccc(-c2ccc3c(N)c(C(=O)Nc4ccc(C)c(F)c4)sc3n2)c1	none
COc1ccc(C(=O)c2sc3nc(-c4ccccc4)ccc3c2N)cc1	Epigenetic derep inconclusive, Vif-A3G inh inconclusive, Vif-APOBEC3F blk 3.55µM
Cc1nc(CSc2nsc(/C=C/N(C)C)c2C#N)cs1	Epigenetic derep 6.31µM, Vif-A3G inh inconclusive, Vif-APOBEC3F blk inconclusive | C127i cell count inactive
N#CC1=C(N)n2c(s/c(=C\c3cccs3)c2=O)=C(C#N)C1c1cccs1 (stereo not given)	Epigenetic derep 10µM, Vif-A3G inh inconclusive, Vif-APOBEC3F blk inconclusive | C127i cell count 14.1µM
CCc1cccc(NC(=O)Cn2c(C(=O)OC)cc3occc32)c1	none
CC(=O)Oc1ccc(C(=O)COC(=O)CNC(=O)COc2ccccc2C)cc1	none (no result: miR-21 reporter, Epigenetic derep, Vif-APOBEC3F blk)
CCOc1ccc(NC(=O)c2nc(S(=O)(=O)Cc3ccccc3F)ncc2Cl)cc1	miR-21 reporter inconclusive, Epigenetic derep inconclusive | C127i cell count inactive | HCC4017 tox 7.05µM | H358 viab 7.91µM
O=C(Nc1ccc(OC(F)F)cc1)c1nc(S(=O)(=O)Cc2ccccc2F)ncc1Cl	none (no result: miR-21 reporter, Epigenetic derep, Vif-APOBEC3F blk)
CC(C)CCn1c(=O)c2cccnc2n(CC(=O)Nc2ccccc2F)c1=O	none
Cc1cc(N2CCN(c3ccc(C(F)(F)F)cc3[N+](=O)[O-])CC2)c2ccccc2n1	none (no result: Epigenetic derep)
